Source: PubChem BioAssay
A selection: hits, their analogues and other compounds. The true share with any hit is near 16%.
DT40 TDP1 no CPT = qHTS for Inhibitors of human tyrosyl-DNA phosphodiesterase 1 (TDP1): qHTS in cells in absence of CPT; AID 686978, 2013; DT40 Tdp1-/- hTDP1 cells, no CPT, ATP luminescence, 48 h; hit rate 15% among 420,000; Potency, µM (highest dose often 46.2 µM), for inactives: top-dose activity change, negative = growth inhibition, actives largely listed as inhibitors; also: potency is read from the fitted curve at half-maximal effect; % is scaled to controls: 0 for no effect and ±100 for the full control effect; nearly all actives have a fitted effect of over 55% in size
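Cells were dispensed at 400 per well, compounds added by pin tool, plates incubated ≥48 hr at 37 °C, then CellTiter-Glo added for 30 min at room temperature before luminescence reading. Line: DT40 Tdp1-/- complemented with hTDP1; camptothecin omitted.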
uPA generation = blocks generation of uPA at the cell surface | hit rate 0.31% among 330,000 | Potency, µM (top dose mostly 38.3 µM), without a hit: at the highest dose activity change, negative = inhibition, hits mostly inhibitors | AID 540303 | cell surface uPA generation assay, qHTS; active = well fitted inhibition curve with a large enough effect; inconclusive = small, poorly fitted or top-dose-only effect; inactive = no such curve, though single readings can be large or run the other way; tested in mouse RAW 264.7 cells; also: potency is read from the fitted curve at half-maximal effect; % is scaled to controls: 0 for no effect and ±100 for the full control effect; nearly all actives have a fitted effect of over 55% in size
TDP1 block = inhibitors of human tyrosyl-DNA phosphodiesterase TDP1. recombinant TDP1, AlphaScreen DNA substrate cleavage. hit rate 0.28% among 350,000. Potency, µM (top dose mostly 130 µM), for the others: at the highest dose activity change, negative = inhibition, usual class: inhibitors; also: potency is read from the fitted curve at half-maximal effect; % is scaled to controls: 0 for no effect and ±100 for the full control effect; nearly all actives have a fitted effect of over 40% in size
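AlphaScreen read-out: signal falls as enzyme removes the 3' tyrosine-FITC from a 5'-biotinylated DNA oligo (15 nM, 5 min, RT). Enzyme was E. coli-made recombinant Tdp1 at 1 nM, exposed to compound for 15 min beforehand; beads 10 ug/ml, 10 min.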
DT40 TDP1 CPT = growth inhibition of DT40 Tdp1-/-;hTDP1 cells with camptothecin (screen for TDP1 inhibitors); chicken DT40 Tdp1-/-;hTDP1 cells + 20 nM CPT, ATP luminescence, 48 h; Potency, µM (series often up to 46.2 µM), without a hit: at the top dose activity change, negative = growth inhibition, usual class: inhibitors; hit rate 12% among 420,000; AID 686979; also: potency is read from the fitted curve at half-maximal effect; % is scaled to controls: 0 for no effect and ±100 for the full control effect; nearly all actives have a fitted effect of over 55% in size
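Chicken DT40 Tdp1-/- cells stably complemented with human TDP1 were seeded at 400 cells/well in medium containing 20 nM camptothecin, exposed to pin-transferred compounds, and grown at 37 °C for at least 48 hr. Viability was read as ATP luminescence.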
miR-21 FLuc = miR-21 reporter, rising signal; Potency, µM (titrated, usually from 38.3 µM), without a hit: at the highest dose reporter change, positive = more light; AID 2288; 340,000 tested, under 10 active; HeLa miR-21 FLuc reporter, luciferase, 48 h; active = well fitted rising curve with a large enough effect; inconclusive = small, poorly fitted or top-dose-only effect; inactive = no such curve, though single readings can be large or run the other way;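 note: % of control where 0% means no effect; miR-21 action dims this reporter so a rising signal means less miR-21 action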
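HeLa miR-21-FLuc reporter line, endogenous miR-21; 2000 cells/well in DMEM/10% FBS; compound titration up to ~40uM final, 48 h, 37 degree Celsius; luciferase detection reagent, 15 min lysis, CCD luminescence.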
Active calls of the source: *; [ ] = another dose, or the depositor's remark. Unless noted, calls follow the shape of the dose curve; as a rule, active = well fitted curve in the direction sought with a large enough effect; inconclusive = small, poorly fitted or top-dose-only effect, or another doubt; inactive = no such curve, though single readings can be large; an effect the other way counts as inactive or inconclusive.

What do the screens show for `Cc1ccc(NS(=O)(=O)c2ccc3c(c2)CC(C)N3C(=O)C2CCC2)cc1Cl` (configuration not stated)?
DT40 TDP1 no CPT: 10µM*; TDP1 block: 7%; DT40 TDP1 CPT: 16µM*; miR-21 FLuc: 12%

How did CC(=O)Nc1ccc(NS(=O)(=O)c2ccc3c(c2)CC(C)N3C(=O)C2CCC2)cc1 (configuration not stated) do in these assays?
DT40 TDP1 no CPT: inconclusive; TDP1 block: 0%; DT40 TDP1 CPT: inconclusive; miR-21 FLuc: 8%

Results for CCc1nnc(NC(=O)C2CCCN2C(=O)NC2CCCCC2)s1 (configuration not stated) ?
DT40 TDP1 no CPT: -11%; uPA generation: 0%; TDP1 block: 7%; DT40 TDP1 CPT: 14%; miR-21 FLuc: -5%

How did COc1ccc(-c2csc(NC(=O)C3CCCO3)n2)cc1 (configuration not stated) do in these assays?
DT40 TDP1 no CPT: 21µM*; uPA generation: 0%; TDP1 block: 2%; DT40 TDP1 CPT: inconclusive; miR-21 FLuc: -33%

What do the screens show for `COc1ccc(-c2csc(NC(=O)c3ccoc3C)n2)cc1`?
DT40 TDP1 no CPT: 12µM*; uPA generation: 3%; TDP1 block: 5%; DT40 TDP1 CPT: -26%; miR-21 FLuc: -35%

How did COc1ccc(-c2csc(NC(=O)c3c(C)noc3C)n2)cc1 do in these assays?
DT40 TDP1 no CPT: 23µM*; uPA generation: 14%; TDP1 block: 2%; DT40 TDP1 CPT: 15µM*

How did Cc1ccc(-c2csc(NC(=O)c3c(C)noc3C)n2)cc1 do in these assays?
DT40 TDP1 no CPT: 9.2µM*; uPA generation: inconclusive; TDP1 block: 1%[56.1 µM]; DT40 TDP1 CPT: inconclusive

How did N#CC1=C2C=Cc3ccccc3N2CCCC1=O do in these assays?
DT40 TDP1 no CPT: -21%; uPA generation: 1%; TDP1 block: 2%; DT40 TDP1 CPT: -3%; miR-21 FLuc: -35%

What do the screens show for `COc1cc(OC)cc(C(=O)N[C@H](C(=O)Nc2nc(-c3ccc(OC)c(OC)c3)cs2)C(C)C)c1`?
DT40 TDP1 no CPT: 13µM*; uPA generation: -1%; DT40 TDP1 CPT: 18µM*; miR-21 FLuc: 0%

What do the screens show for `COc1ccc(-c2csc(NC(=O)c3c(C)noc3C)n2)cc1OC`?
DT40 TDP1 no CPT: 15µM*; DT40 TDP1 CPT: 21µM*

What do the screens show for `CCc1noc(C)c1C(=O)Nc1nc(-c2ccc(Cl)cc2Cl)cs1`?
DT40 TDP1 no CPT: 18µM*; uPA generation: -6%; TDP1 block: 0%; DT40 TDP1 CPT: 18µM*; miR-21 FLuc: 4%

Results for Cc1noc(C)c1C(=O)Nc1nc(-c2ccc([N+](=O)[O-])cc2)cs1 ?
DT40 TDP1 no CPT: inconclusive; uPA generation: -19%; TDP1 block: 4%; DT40 TDP1 CPT: inconclusive; miR-21 FLuc: 16%

How did CC12CC(NC(=O)N1Cc1ccccc1)c1ccccc1O2 (configuration not stated) do in these assays?
DT40 TDP1 no CPT: -21%; uPA generation: 0%; TDP1 block: 1%; DT40 TDP1 CPT: inconclusive; miR-21 FLuc: -3%

What do the screens show for `CC12CC(NC(=O)N1CCc1ccccc1)c1cc(Cl)ccc1O2` (configuration not stated)?
DT40 TDP1 no CPT: 21µM*; uPA generation: 3%; TDP1 block: -2%; DT40 TDP1 CPT: inconclusive; miR-21 FLuc: 1%

Results for Cn1c2c(c(=O)n(C)c1=O)C1(C(=O)Nc3ccccc31)C(C#N)=C(N)O2 (configuration not stated) ?
DT40 TDP1 no CPT: inconclusive; uPA generation: 2%; TDP1 block: 4%; DT40 TDP1 CPT: 15µM*; miR-21 FLuc: -1%

Results for Cc1ccc(/C=C(\NC(=O)c2ccccc2)C(=O)OCc2ccccc2)cc1 ?
DT40 TDP1 no CPT: inconclusive; uPA generation: -2%; TDP1 block: -1%; DT40 TDP1 CPT: inconclusive; miR-21 FLuc: -8%

How did O=C(c1ccc(-c2nc3ccccc3s2)o1)N1CCN(c2ccccc2O)CC1 do in these assays?
DT40 TDP1 no CPT: 21µM*; uPA generation: 1%; TDP1 block: 7%; DT40 TDP1 CPT: 23µM*; miR-21 FLuc: -16%

How did O=C(CN1CCN(C(=O)c2ccc(-c3nc4ccccc4s3)o2)CC1)Nc1ccc(F)cc1 do in these assays?
DT40 TDP1 no CPT: 26µM*; uPA generation: -14%; TDP1 block: 5%; DT40 TDP1 CPT: inconclusive

What do the screens show for `O=C(O)c1ccc(-c2nc3ccccc3s2)o1`?
DT40 TDP1 no CPT: 19%; uPA generation: -4%; DT40 TDP1 CPT: 7%; miR-21 FLuc: -31%

Results for CCCOc1ccc(C2C(C#N)=C(N)Oc3nc[nH]c(=O)c32)cc1OC (configuration not stated) ?
DT40 TDP1 no CPT: -5%; uPA generation: 1%; TDP1 block: 2%; DT40 TDP1 CPT: -14%; miR-21 FLuc: 0%

How did Cn1c(-c2ccccc2)c(C(=O)CCl)c2ccccc21 do in these assays?
DT40 TDP1 no CPT: 3.3µM*; uPA generation: -17%; TDP1 block: 8%; DT40 TDP1 CPT: 2.6µM*; miR-21 FLuc: inconclusive

How did CCn1c(-c2ccccc2)c(C(=O)CCl)c2ccccc21 do in these assays?
DT40 TDP1 no CPT: 2.6µM*; uPA generation: inconclusive; TDP1 block: 2%; DT40 TDP1 CPT: 3.7µM*; miR-21 FLuc: inconclusive

What do the screens show for `CCN(c1cc(C)cc(C)c1)S(=O)(=O)c1nnc(NC(=O)c2cccc(F)c2)s1`?
DT40 TDP1 no CPT: 13µM*; TDP1 block: 1%; DT40 TDP1 CPT: 12µM*; miR-21 FLuc: 13%

What do the screens show for `CCN(c1cc(C)cc(C)c1)S(=O)(=O)c1nnc(NC(=O)c2ccccc2C)s1`?
DT40 TDP1 no CPT: inconclusive; TDP1 block: 3%; DT40 TDP1 CPT: inconclusive; miR-21 FLuc: 9%

How did CCN(c1ccc(Cl)cc1)S(=O)(=O)c1nnc(NC(=O)c2ccccc2C)s1 do in these assays?
DT40 TDP1 no CPT: 15µM*; TDP1 block: 4%; DT40 TDP1 CPT: 16µM*; miR-21 FLuc: 25%

Results for COCCCNC(=O)CC(C)c1ccccc1 (configuration not stated) ?
DT40 TDP1 no CPT: -7%; uPA generation: 4%; TDP1 block: 4%; DT40 TDP1 CPT: 0%; miR-21 FLuc: -2%

How did CC(C)CNC(=O)c1cn(C2CCN(Cc3nc4ccccc4s3)CC2)nn1 do in these assays?
DT40 TDP1 no CPT: -14%; DT40 TDP1 CPT: 3%

What do the screens show for `COc1ccc(C)cc1-n1nnnc1SCC(=O)NC1CCS(=O)(=O)C1` (configuration not stated)?
DT40 TDP1 no CPT: 15%; uPA generation: 8%; TDP1 block: 0%; DT40 TDP1 CPT: -6%

Of the compounds above, these have a cyano group.
How did N#CC1=C2C=Cc3ccccc3N2CCCC1=O do in these assays?
DT40 TDP1 no CPT: -21%; uPA generation: 1%; TDP1 block: 2%; DT40 TDP1 CPT: -3%; miR-21 FLuc: -35%

Results for Cn1c2c(c(=O)n(C)c1=O)C1(C(=O)Nc3ccccc31)C(C#N)=C(N)O2 (configuration not stated) ?
DT40 TDP1 no CPT: inconclusive; uPA generation: 2%; TDP1 block: 4%; DT40 TDP1 CPT: 15µM*; miR-21 FLuc: -1%

Results for CCCOc1ccc(C2C(C#N)=C(N)Oc3nc[nH]c(=O)c32)cc1OC (configuration not stated) ?
DT40 TDP1 no CPT: -5%; uPA generation: 1%; TDP1 block: 2%; DT40 TDP1 CPT: -14%; miR-21 FLuc: 0%
